By UniProt entry, the sequences of proteins in these tests, tags left out. Chains listed by the source or under a name are the forms on record and can include a tag or linker. Residues count along the entry.
UniProt P00533, with tags, fused parts or gaps DEL746-750/L792H: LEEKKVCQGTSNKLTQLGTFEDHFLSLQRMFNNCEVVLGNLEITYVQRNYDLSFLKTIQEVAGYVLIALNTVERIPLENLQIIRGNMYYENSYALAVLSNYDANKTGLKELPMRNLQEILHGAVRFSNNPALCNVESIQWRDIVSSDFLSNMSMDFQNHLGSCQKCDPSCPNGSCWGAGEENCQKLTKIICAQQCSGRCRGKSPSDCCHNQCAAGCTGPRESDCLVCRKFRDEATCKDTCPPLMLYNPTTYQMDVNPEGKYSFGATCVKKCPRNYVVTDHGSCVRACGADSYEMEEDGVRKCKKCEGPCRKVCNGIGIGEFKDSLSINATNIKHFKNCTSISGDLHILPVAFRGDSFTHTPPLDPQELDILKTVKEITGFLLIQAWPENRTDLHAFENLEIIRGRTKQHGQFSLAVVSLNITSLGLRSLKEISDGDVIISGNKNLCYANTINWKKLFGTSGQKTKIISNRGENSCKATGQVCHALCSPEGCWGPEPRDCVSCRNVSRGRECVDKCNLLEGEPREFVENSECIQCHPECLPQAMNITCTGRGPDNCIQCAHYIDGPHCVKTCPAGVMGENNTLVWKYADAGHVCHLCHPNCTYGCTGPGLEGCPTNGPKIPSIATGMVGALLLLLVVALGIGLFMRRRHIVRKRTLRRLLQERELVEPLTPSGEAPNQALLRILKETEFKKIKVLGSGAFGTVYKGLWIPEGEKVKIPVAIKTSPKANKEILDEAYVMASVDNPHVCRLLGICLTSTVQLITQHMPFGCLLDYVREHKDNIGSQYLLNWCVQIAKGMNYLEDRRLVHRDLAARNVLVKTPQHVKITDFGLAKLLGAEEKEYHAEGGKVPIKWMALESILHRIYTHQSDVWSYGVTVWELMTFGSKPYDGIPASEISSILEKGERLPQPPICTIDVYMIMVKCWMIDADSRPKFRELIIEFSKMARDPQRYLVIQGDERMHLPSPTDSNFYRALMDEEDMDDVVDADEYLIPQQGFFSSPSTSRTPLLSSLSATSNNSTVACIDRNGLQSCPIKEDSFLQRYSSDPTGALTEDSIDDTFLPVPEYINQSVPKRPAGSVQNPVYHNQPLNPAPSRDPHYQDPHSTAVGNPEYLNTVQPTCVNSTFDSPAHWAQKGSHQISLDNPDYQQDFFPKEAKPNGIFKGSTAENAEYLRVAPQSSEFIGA
UniProt P00533, 25-1210 L861Q: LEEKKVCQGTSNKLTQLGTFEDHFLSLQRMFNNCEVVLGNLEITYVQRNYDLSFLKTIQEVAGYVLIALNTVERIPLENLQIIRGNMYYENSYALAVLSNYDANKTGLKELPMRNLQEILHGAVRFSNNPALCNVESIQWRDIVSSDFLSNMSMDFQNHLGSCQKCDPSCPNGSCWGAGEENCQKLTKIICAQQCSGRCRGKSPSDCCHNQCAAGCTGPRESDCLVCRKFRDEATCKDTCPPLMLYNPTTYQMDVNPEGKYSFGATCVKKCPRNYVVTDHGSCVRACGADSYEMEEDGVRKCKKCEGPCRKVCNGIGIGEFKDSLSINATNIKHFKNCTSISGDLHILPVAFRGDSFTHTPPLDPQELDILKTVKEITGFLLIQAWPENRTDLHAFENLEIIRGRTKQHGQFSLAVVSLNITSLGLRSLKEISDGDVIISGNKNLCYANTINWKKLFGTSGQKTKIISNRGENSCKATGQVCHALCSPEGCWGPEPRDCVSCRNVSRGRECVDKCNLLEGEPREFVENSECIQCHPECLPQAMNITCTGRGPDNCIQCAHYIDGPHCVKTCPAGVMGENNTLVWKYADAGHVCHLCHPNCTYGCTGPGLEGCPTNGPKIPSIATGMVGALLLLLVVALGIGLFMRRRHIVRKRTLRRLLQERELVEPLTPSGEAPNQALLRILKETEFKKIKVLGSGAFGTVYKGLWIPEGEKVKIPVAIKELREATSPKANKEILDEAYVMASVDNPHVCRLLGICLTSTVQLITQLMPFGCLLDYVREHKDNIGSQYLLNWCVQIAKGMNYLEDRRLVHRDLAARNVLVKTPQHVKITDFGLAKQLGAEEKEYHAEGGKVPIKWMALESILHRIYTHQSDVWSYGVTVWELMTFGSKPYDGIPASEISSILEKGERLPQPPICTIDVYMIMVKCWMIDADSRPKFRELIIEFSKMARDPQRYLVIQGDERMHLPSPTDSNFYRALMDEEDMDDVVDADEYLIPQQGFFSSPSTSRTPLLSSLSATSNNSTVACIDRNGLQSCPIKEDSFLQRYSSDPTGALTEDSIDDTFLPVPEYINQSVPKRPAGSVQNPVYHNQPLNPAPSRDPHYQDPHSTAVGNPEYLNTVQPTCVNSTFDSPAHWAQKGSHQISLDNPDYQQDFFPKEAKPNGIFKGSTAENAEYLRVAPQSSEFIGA
UniProt P00533, with tags, fused parts or gaps DEL746-750/C797S: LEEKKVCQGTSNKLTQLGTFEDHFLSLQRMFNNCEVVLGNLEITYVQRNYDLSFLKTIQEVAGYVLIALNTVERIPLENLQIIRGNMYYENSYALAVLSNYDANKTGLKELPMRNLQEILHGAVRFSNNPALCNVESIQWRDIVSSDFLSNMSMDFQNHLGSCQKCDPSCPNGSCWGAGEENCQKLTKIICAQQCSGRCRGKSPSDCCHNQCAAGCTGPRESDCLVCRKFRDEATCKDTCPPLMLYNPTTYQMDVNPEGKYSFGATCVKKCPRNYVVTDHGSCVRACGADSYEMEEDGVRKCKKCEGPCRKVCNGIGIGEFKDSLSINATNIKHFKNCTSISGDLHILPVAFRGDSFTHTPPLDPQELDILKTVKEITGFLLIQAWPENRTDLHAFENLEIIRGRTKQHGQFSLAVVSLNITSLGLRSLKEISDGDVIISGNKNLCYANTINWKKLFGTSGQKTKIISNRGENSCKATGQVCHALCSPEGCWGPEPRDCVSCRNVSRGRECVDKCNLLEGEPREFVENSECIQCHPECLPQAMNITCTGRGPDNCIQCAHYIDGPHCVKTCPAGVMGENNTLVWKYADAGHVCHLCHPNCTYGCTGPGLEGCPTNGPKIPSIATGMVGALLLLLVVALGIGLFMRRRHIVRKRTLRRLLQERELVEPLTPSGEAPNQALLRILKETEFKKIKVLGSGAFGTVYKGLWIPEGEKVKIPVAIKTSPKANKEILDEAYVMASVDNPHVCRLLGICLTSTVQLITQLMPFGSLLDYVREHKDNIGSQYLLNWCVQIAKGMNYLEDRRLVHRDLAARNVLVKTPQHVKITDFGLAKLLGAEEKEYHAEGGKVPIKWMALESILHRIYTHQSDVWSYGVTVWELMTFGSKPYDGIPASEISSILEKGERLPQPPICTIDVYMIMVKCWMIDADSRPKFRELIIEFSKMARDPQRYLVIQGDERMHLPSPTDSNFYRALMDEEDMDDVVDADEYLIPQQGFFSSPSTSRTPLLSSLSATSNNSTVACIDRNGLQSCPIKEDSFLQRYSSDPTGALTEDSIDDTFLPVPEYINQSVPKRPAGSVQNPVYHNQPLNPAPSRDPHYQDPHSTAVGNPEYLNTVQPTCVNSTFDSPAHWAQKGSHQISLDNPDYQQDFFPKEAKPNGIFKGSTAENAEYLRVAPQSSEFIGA
UniProt P00533, 25-1210 S784F: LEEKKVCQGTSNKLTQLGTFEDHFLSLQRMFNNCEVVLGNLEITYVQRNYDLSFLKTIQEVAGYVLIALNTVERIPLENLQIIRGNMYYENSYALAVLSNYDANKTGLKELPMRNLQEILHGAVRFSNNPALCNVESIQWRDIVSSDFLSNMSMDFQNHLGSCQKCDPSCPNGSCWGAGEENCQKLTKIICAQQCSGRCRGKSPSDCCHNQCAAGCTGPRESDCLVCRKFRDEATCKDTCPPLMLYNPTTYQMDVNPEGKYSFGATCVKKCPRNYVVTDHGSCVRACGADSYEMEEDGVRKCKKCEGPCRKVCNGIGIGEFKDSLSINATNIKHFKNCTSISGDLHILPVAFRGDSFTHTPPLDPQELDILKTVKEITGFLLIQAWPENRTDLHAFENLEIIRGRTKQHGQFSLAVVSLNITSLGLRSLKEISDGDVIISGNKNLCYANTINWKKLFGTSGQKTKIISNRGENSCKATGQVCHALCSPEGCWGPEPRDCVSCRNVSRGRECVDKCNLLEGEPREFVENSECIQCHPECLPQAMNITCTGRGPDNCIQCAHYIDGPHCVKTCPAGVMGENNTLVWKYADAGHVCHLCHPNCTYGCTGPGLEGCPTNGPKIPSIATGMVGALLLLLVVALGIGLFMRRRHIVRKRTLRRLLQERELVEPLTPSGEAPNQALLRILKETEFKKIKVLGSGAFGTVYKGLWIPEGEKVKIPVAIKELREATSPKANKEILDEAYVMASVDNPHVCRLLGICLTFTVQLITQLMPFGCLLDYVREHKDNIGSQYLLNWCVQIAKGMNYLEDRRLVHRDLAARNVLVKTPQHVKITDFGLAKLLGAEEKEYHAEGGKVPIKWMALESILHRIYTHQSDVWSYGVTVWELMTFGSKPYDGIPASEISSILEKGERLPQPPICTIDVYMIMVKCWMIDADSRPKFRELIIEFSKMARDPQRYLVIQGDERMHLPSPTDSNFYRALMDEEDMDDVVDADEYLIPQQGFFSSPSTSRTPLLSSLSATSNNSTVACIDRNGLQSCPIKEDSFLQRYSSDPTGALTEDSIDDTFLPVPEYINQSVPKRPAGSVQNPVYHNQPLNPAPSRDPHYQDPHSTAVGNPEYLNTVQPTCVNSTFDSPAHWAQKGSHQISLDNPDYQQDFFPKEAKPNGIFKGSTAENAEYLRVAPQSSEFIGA
UniProt P00533, 25-1210 S784F/L858R: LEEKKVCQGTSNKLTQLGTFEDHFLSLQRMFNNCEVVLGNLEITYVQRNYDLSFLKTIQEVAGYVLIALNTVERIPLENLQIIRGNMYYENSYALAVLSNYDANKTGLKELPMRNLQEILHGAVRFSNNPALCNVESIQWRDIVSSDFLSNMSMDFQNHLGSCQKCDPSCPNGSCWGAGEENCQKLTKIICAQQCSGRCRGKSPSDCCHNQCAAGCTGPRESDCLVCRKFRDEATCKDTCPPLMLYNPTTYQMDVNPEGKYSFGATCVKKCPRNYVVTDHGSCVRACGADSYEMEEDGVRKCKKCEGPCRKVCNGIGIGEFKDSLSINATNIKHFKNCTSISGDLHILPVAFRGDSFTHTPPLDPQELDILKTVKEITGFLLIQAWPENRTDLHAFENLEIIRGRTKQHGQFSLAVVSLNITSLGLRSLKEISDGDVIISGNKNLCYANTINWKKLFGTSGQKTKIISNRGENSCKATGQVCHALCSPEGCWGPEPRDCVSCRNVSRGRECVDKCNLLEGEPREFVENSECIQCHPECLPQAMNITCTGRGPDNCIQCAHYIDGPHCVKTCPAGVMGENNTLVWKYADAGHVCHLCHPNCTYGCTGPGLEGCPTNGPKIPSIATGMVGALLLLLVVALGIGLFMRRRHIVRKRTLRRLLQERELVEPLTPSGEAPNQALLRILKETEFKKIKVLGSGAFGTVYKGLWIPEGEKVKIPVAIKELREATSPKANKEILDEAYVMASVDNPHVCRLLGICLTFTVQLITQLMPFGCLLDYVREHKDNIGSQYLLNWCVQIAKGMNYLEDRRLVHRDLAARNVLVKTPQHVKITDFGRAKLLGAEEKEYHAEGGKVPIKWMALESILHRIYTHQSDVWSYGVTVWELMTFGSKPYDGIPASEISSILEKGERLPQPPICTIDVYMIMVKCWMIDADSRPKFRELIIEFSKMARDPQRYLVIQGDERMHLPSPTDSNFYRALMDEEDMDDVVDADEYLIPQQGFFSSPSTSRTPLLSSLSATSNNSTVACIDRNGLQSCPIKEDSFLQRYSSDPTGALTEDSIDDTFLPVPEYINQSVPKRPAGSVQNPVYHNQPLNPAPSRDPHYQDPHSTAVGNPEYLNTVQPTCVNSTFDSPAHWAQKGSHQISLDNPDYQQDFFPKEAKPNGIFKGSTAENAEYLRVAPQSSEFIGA

In US20260240847A1, “COMPOUNDS WITH ANTI-TUMOR ACTIVITY AGAINST CANCER CELLS BEARING TYROSINE KINASE INHIBITOR RESISTANT EGFR MUTATIONS” (BOARD OF REGENTS, THE UNIVERSITY OF TEXAS SYSTEM, priority 2019, published 2026):

Assays:
Assay in all cases: Ba/F3 cell viability, Cell Titer Glo
EGFR Ex19del/L792H = EGFR Ex19del/L792H (Homo sapiens, UniProt P00533, DEL746-750/L792H); settings: read-out: IC50 Values; Ba/F3 cells expressing EGFR Ex19del/L792H, 72 hours
EGFR L861Q = EGFR L861Q (Homo sapiens, UniProt P00533, L861Q); settings: read-out: IC50 Values; Ba/F3 cells expressing EGFR L861Q, 72 hours
EGFR Ex19del/C797S = EGFR Ex19del/C797S (Homo sapiens, UniProt P00533, C797S/DEL746-750); settings: read-out: IC50 Values; Ba/F3 cells expressing EGFR Ex19del/C797S, 72 hours
EGFR S784F = EGFR S784F (Homo sapiens, UniProt P00533, S784F); settings: read-out: IC50 Values; Ba/F3 cells expressing EGFR S784F, 72 hours
EGFR L858R S784F = EGFR L858R S784F (Homo sapiens, UniProt P00533, L858R/S784F); settings: read-out: IC50 Values; Ba/F3 cells expressing EGFR L858R S784F, 72 hours
EGFR Ex19del/T790M/G724S = EGFR Ex19del/T790M/G724S (Homo sapiens, UniProt P00533, DEL746-750/G724S/T790M); settings: read-out: IC50 Values; Ba/F3 cells expressing EGFR Ex19del/T790M/G724S, 72 hours
EGFR Ex19del G796S = EGFR Ex19del G796S (Homo sapiens, UniProt P00533, DEL746-750/G796S); settings: read-out: IC50 Values; Ba/F3 cells expressing EGFR Ex19del G796S, 72 hours
EGFR L833V = EGFR L833V (Homo sapiens, UniProt P00533, L833V); settings: read-out: IC50 Values; Ba/F3 cells expressing EGFR L833V, 72 hours
EGFR L858R/L792H = EGFR L858R/L792H (Homo sapiens, UniProt P00533, L792H/L858R); settings: read-out: IC50 Values; Ba/F3 cells expressing EGFR L858R/L792H, 72 hours
EGFR S768I V774M = EGFR S768I V774M (Homo sapiens, UniProt P00533, S768I/V774M); settings: read-out: IC50 Values; Ba/F3 cells expressing EGFR S768I V774M, 72 hours
EGFR L858R/C797S = EGFR L858R/C797S (Homo sapiens, UniProt P00533, C797S/L858R); settings: read-out: IC50 Values; Ba/F3 cells expressing EGFR L858R/C797S, 72 hours
EGFR G719A/R776C = EGFR G719A/R776C (Homo sapiens, UniProt P00533, G719A/R776C); settings: read-out: IC50 Values; Ba/F3 cells expressing EGFR G719A/R776C, 72 hours
EGFR Ex19delT790M L718V = EGFR Ex19delT790M L718V (Homo sapiens, UniProt P00533, DEL746-750/L718V/T790M); settings: read-out: IC50 Values; Ba/F3 cells expressing EGFR Ex19delT790M L718V, 72 hours
EGFR L861R = EGFR L861R (Homo sapiens, UniProt P00533, L861R); settings: read-out: IC50 Values; Ba/F3 cells expressing EGFR L861R, 72 hours
EGFR E709A = EGFR E709A (Homo sapiens, UniProt P00533, E709A); settings: read-out: IC50 Values; Ba/F3 cells expressing EGFR E709A, 72 hours
EGFR V774M = EGFR V774M (Homo sapiens, UniProt P00533, V774M); settings: read-out: IC50 Values; Ba/F3 cells expressing EGFR V774M, 72 hours
EGFR S768I/V769L = EGFR S768I/V769L (Homo sapiens, UniProt P00533, S768I/V769L); settings: read-out: IC50 Values; Ba/F3 cells expressing EGFR S768I/V769L, 72 hours
EGFR S768I/T790M = EGFR S768I/T790M (Homo sapiens, UniProt P00533, S768I/T790M); settings: read-out: IC50 Values; Ba/F3 cells expressing EGFR S768I/T790M, 72 hours
EGFR L833F = EGFR L833F (Homo sapiens, UniProt P00533, L833F); settings: read-out: IC50 Values; Ba/F3 cells expressing EGFR L833F, 72 hours
EGFR l740duplPVAK = EGFR l740duplPVAK (Homo sapiens, UniProt P00533, DUP740-745); settings: read-out: IC50 Values; Ba/F3 cells expressing EGFR l740duplPVAK, 72 hours

`Cc1cc(C(=O)Nc2nc3cccc(Cl)c3n2[C@@H]2CCCCN(C(=O)/C=C/CN(C)C)C2)ccn1` gave an IC50 (EGFR Ex19del/L792H) of 56.7 nM, an IC50 (EGFR L861Q) of 83.4 nM and an IC50 (EGFR Ex19del/C797S) of 3980 nM. For the same compound, the IC50 (EGFR S784F) was 403 nM, the IC50 (EGFR L858R S784F) was 428 nM and the IC50 (EGFR Ex19del/T790M/G724S) was 79.3 nM. It also gave an IC50 (EGFR Ex19del G796S) of 210 nM, an IC50 (EGFR L833V) of 246 nM and an IC50 (EGFR L858R/L792H) of 74.4 nM. For the same compound, the IC50 (EGFR S768I V774M) was 124 nM, the IC50 (EGFR L858R/C797S) was 4490 nM and the IC50 (EGFR G719A/R776C) was 56.5 nM. It also gave an IC50 (EGFR Ex19delT790M L718V) of 211 nM, an IC50 (EGFR L861R) of 14.5 nM and an IC50 (EGFR E709A) of 175 nM. For the same compound, the IC50 (EGFR V774M) was 153 nM, the IC50 (EGFR S768I/V769L) was 292 nM and the IC50 (EGFR S768I/T790M) was 25.6 nM. For the same compound, the IC50 (EGFR L833F) was 253 nM and the IC50 (EGFR l740duplPVAK) was 75.4 nM.
